Here are results for 18 compounds from PubChem BioAssay AID612 (The Scripps Research Institute Molecular Screening Center, 2007).

Chains of the proteins cited; added tags and fusions are not shown.
UniProt P08908, whole entry, looked up: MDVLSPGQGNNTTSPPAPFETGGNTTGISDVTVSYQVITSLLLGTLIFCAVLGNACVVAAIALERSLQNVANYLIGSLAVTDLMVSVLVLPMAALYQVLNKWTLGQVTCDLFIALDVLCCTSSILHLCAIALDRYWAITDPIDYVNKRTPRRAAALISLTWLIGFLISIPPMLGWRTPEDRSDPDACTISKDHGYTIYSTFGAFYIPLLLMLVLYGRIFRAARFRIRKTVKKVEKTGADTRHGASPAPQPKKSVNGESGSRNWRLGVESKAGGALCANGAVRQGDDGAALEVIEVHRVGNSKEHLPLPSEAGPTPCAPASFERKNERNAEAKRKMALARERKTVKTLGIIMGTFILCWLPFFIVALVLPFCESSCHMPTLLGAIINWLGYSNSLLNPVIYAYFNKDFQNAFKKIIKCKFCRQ

Each structure is given as a SMILES string. The entries are a selection whose mix differs from that of the whole data set. Active and inactive are the calls of the source.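 How the source made its calls: active means inhibition above the mean of all tested compounds plus 3 SD (cut at about 43% in these data); inactive means the rest.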

For this assay, the target named is 5-hydroxytryptamine receptor 1A (Homo sapiens) (UniProt P08908). As to the kind of experiment: blockade of serotonin HTR1A receptor – cell-based, CHO, Ga15 NFAT-bla reporter, primary screen (AID 612).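 Further: receptor stimulated by 5-CT agonist at 100 nM near EC80; beta-lactamase reporter measured by ratiometric fluorescence of a cleavable substrate.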 The note with it: CHO 5-HT1a Ga15 NFAT-bla reporter, antagonist mode; at 10 µM; active compounds read high.
In general, inhibition refers to the change of the read-out against control, counted positive when it falls. Take `Cc1c2non([O-])c-2c(C)[n+](=O)[n+]1[O-]`: the inhibition was inactive: 22%.
For `CCc1nc2c(n1)c1c(non1O)c1c2no[n+]1[O-]`, the inhibition was active: 86.8%.
With `O=C(OC1CN2CCC1CC2)c1cccc(Cl)c1` (stereo not drawn), the inhibition was inactive: -8.9%.
For the compound `O=P(Nc1nccs1)(c1ccccc1)c1ccccc1`, the inhibition was inactive: -10.4%.
Regarding `c1nnnn1CCn1cnnn1`, the inhibition was inactive: 0.1%.
Consider `O=P1(Nc2nc3ccc(Cl)cc3s2)COc2ccccc2O1` (stereo not drawn), for which the inhibition is inactive: -21.9%.
Regarding `COC(=O)c1cc2c(s1)N=C(c1ccccc1)N(C)P2(=O)N1CCOCC1` (stereo not drawn), the inhibition was inactive: -1.7%.
For `CCOP1(=S)c2c(C)nn(CCC#N)c2N=C(c2ccc(F)cc2)N1C` (stereo not drawn), the inhibition was inactive: 9.5%.
Consider `O=P(Nc1nccs1)(c1ccccc1)c1nc2ccccc2s1` (stereo not drawn), for which the inhibition is active: 49.5%.
For the compound `CCOP1(=S)c2c(C)nn(CCC#N)c2N=C(c2ccccc2F)N1C` (stereo not drawn), the inhibition was inactive: 13.3%.
For `O=P1(Nc2ccccn2)COc2ccccc2OC1`, the inhibition was inactive: 5.9%.
Regarding `Clc1n[nH]nc1-c1nn[nH][15n]1`, the inhibition was inactive: -6.9%.
For the compound `O=P1(Nc2ncccn2)COc2ccccc2OC1`, the inhibition was inactive: -5.5%.
With `O=P1(Nc2ccc(Br)cn2)COc2ccccc2OC1` the figure was inactive: 1.9%; with `Cc1nn(-c2ccccc2)c2c1P(=O)(N1CCOCC1)N(C)C(c1ccccc1)=N2` (stereo not drawn), inactive: 2.8%.
Regarding `COP1(=S)c2c(C)nn(CCC#N)c2N=C(c2ccc(F)cc2)N1C` (stereo not drawn), the inhibition is inactive: -4%.
As for `O=C(COc1ccccc1)OC1CN2CCC1CC2` (stereo not drawn), the inhibition was inactive: 4.5%.
For `O=C(OC1CN2CCC1CC2)C12CC3CC(CC(C3)C1)C2` (stereo not drawn), the inhibition was inactive: 10.9%.
